Measured values taken from patent publication KR20220012314A (dated 2022).
Values joined by “and” are separate entries in the source; they are usually repeats but may differ in a detail not shown here. Identical values can stand only once.

How the values were obtained:
[1] = biological target: T1, 재조합 인간 BCMA-his 단백질 (Cat#BCA-H522Y, 아크로 바이오시스템즈) (human, UniProt Q02223 1-54, biotin-labelled in the capture ELISA and the benchmark-blocking ELISA); assay: competition ELISA: BM coated, antibody titrated and premixed with biotin-labelled human BCMA-his; competitor BM
T1 construct: Bought protein, MW 7.8 kDa as printed; not shown: his tag
T1 sequence: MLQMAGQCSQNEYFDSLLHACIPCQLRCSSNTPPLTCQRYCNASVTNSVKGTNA

[2] = biological target: T1, 재조합 인간 BCMA-his 단백질 (Cat#BCA-H522Y, 아크로 …); assay: competition ELISA: BCMA-his coated, antibody titrated, then biotin-labelled human BAFF-Fc; competitor BAFF-Fc
[3] = biological target: T1, 재조합 인간 BCMA-his 단백질 (Cat#BCA-H522Y, 아크로 …); assay: competition ELISA: BM coated, antibody titrated and premixed with biotin-labelled human BCMA-his; competitor BM; remark: listed apart in the source
[4] = biological target: T1, 재조합 인간 BCMA-his 단백질 (Cat#BCA-H522Y, 아크로 …); assay: SPR (Biacore), human BCMA
[5] = biological target: T1, 재조합 인간 BCMA-his 단백질 (Cat#BCA-H522Y, 아크로 …); assay: capture ELISA with biotin-labelled human BCMA-his
[6] = biological target: T1, 재조합 인간 BCMA-his 단백질 (Cat#BCA-H522Y, 아크로 …); assay: competition ELISA: BCMA-his coated, antibody titrated, then biotin-labelled human BAFF-Fc; competitor BAFF-Fc; remark: listed apart in the source
[7] = biological target: T1, 재조합 인간 BCMA-his 단백질 (Cat#BCA-H522Y, 아크로 …); assay: capture ELISA: antibody captured on plate, biotin-labelled human BCMA-his in solution
[8] = biological target: T1, 재조합 인간 BCMA-his 단백질 (Cat#BCA-H522Y, 아크로 …); assay: capture ELISA with biotin-labelled human BCMA-his; remark: listed apart in the source

B1: 키메라 B1G3 (antibody, V domains shown)
VH: QIQLVQSGPELKKPGETVKISCKASGYTFTNHGMNWVKQAPGKGLKWMGWINTYTGEPTYADDFKGRFAFSLETSATTAYLQINNLRIEDTATYFCARYSYYGYYHAMDYWGQGTSVTVSS
VL: QIVLSQSPAILSASPGEKVTMTCRASSSVHYMHWYQQKPGSPPKPWIYATSNLASGVPARFSGSGSGTSYSLTISRVEAEDAATYYCQQWSSNPTFGGGTKLEIKR
IC50 [1]: 9.89 nM
IC50 [2]: 9.04 nM
IC50 [3]: 9.89 nM
Kd [4]: 2.22 nM
EC50 [5]: 1.47 nM
IC50 [6]: 9.04 nM
EC50 [7]: 1.47 nM
EC50 [8]: 1.7 ng/mL and 2.14 ng/mL and 2.39 ng/mL

B2: 키메라 B1C1 (antibody, V domains shown)
VH: QIQLVQSGPELKKPGETVKISCKASGYIFTNFGMNWVKQAPGKDLKWMGWINTYTGEPTYADDFKGRFAFSLENSASTASLQIDNLKNEDTATYFCARYSYYGYYHAMDYWGQGASVTVSS
VL: QIVLSQSPTILSASPGEEVTMTCRASSSVFYMHWYQQKPGSSPKPWIYATSTLASGVPARFSGSGSGTSYSLSISRVEAEDAATYFCQQWSSNPTFGGGTKLEIKR
IC50 [1]: 3.01 nM
IC50 [2]: 2.29 nM
IC50 [3]: 3.01 nM
Kd [4]: 1.25 nM
EC50 [5]: 1.25 nM
IC50 [6]: 2.29 nM
EC50 [7]: 1.25 nM
EC50 [8]: 0.832 ng/mL and 1.12 ng/mL and 1.05 ng/mL
